Earlier results as cited in patent US11981752B2, “Tumor associated monocyte/macrophage binding peptide and methods of use thereof” (Sanford Burnham Prebys Medical Discovery Institute, priority 2017, dated 2024).

By UniProt entry, the sequences of proteins in these tests, tags left out. Where a name states a change or a piece, a line headed by the entry shows the natural chain unless it says otherwise.
UniProt O00329, whole entry: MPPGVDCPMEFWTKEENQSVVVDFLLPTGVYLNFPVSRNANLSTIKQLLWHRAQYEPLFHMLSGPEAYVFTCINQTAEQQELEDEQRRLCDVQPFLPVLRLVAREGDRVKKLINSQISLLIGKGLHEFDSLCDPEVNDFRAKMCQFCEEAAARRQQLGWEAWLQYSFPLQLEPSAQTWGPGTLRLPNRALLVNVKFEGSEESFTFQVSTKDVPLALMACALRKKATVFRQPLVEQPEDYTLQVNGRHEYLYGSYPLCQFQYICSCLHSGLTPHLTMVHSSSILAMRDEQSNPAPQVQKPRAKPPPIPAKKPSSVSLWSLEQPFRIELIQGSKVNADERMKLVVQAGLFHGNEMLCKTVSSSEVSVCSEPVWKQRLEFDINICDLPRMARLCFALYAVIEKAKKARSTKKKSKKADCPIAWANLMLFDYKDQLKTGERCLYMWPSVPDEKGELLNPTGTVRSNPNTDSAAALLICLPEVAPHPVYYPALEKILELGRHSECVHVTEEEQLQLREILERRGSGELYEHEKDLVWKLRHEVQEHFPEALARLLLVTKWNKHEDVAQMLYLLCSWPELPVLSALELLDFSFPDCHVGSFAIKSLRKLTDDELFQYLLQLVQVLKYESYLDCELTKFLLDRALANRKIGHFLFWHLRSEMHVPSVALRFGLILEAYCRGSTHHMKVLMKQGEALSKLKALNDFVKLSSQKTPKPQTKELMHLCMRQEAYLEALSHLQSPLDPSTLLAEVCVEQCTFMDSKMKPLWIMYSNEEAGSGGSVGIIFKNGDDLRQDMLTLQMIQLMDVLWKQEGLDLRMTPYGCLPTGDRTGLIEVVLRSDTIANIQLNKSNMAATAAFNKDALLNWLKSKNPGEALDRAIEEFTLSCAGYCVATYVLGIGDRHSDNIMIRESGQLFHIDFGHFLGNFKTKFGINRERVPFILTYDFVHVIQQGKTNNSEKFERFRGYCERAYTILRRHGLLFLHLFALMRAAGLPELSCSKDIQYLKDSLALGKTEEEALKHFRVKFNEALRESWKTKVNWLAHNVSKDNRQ
UniProt P27986, whole entry partner: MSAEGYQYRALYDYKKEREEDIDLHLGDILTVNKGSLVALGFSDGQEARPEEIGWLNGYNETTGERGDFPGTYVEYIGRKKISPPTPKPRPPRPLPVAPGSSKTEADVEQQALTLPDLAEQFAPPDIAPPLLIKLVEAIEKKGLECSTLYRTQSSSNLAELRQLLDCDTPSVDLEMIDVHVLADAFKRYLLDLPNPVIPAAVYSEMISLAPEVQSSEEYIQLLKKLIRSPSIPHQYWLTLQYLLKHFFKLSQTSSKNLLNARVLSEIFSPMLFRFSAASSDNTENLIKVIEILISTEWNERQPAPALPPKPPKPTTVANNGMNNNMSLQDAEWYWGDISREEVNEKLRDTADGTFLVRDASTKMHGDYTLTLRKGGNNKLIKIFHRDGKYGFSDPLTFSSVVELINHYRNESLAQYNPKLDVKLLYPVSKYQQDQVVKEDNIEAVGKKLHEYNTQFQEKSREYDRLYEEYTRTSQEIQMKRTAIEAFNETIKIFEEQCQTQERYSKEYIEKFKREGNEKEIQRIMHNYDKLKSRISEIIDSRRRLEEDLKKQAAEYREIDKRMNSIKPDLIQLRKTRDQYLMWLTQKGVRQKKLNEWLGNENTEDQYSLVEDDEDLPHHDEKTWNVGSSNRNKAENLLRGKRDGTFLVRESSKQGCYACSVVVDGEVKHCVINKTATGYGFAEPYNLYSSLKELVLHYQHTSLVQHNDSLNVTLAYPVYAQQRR

Target: PI3Kδ (Homo sapiens, UniProt O00329)
Details: cited from earlier work

SMILES: Cc1ccccc1-n1c(Cn2ncc3c(N)ncnc32)nc2cccc(C)c2c1=O [PIK-293]
- selectivity for PI3Kδ over PI3Kα (fold less potent to PI3Kα): 500 fold
- selectivity for PI3Kδ over PI3Kβ (fold less potent to PI3Kβ): 100 fold
- selectivity for PI3Kδ over PI3Kγ (fold less potent to PI3Kγ): 50-fold less potent to PI3Kα/β/γ, respectively.
